Assay [1] deals with Epidermal growth factor receptor (Homo sapiens), P00533 [UNDEFINED MUTATION]. Kind of assay: Binding affinity to human EGFR E746-A750 deletion mutant expressed in bacterial system assessed as control score at 1 uM by KINOMEScan assay.
For assay [2], the system named is Epidermal growth factor receptor (Homo sapiens), P00533 [G719C]. Kind of assay: Binding affinity to human EGFR G719C mutant expressed in bacterial system assessed as control score at 1 uM by KINOMEScan assay.
For assay [3], the system named is Epidermal growth factor receptor (Homo sapiens), P00533 [G719S]. Nature of the assay: Binding affinity to human EGFR G719S mutant expressed in bacterial system assessed as control score at 1 uM by KINOMEScan assay.
The subject of assay [4] is Epidermal growth factor receptor (Homo sapiens), P00533 [UNDEFINED MUTATION]. Nature of the assay: Binding affinity to human EGFR L747-E749del/A750P mutant expressed in bacterial system assessed as control score at 1 uM by KINOMEScan assay.
For assay [5] the test system is unchanged. Kind of assay: Binding affinity to human EGFR L747-S752del/P753S mutant expressed in bacterial system assessed as control score at 1 uM by KINOMEScan assay.
Assay [6] shares this test system. Nature of the assay: Binding affinity to human EGFR L747-T751del/Sins mutant expressed in bacterial system assessed as control score at 1 uM by KINOMEScan assay relative to control.
In assay [7] the test system is Epidermal growth factor receptor (Homo sapiens), P00533 [L858R]. Kind of assay: Binding affinity to human EGFR L858R mutant expressed in bacterial system assessed as control score at 1 uM by KINOMEScan assay.
Assay [8] deals with Epidermal growth factor receptor (Homo sapiens), P00533 [L858R,T790M]. Nature of the assay: Binding affinity to human EGFR L858R/T790M mutant expressed in mammalian system assessed as control score at 1 uM by KINOMEScan assay.
Assay [9] relates to Epidermal growth factor receptor (Homo sapiens), P00533 [L861Q]. Kind of assay: Binding affinity to human EGFR L861Q mutant expressed in bacterial system assessed as control score at 1 uM by KINOMEScan assay.
In assay [10] the test system is Epidermal growth factor receptor (Homo sapiens), P00533 [UNDEFINED MUTATION]. Nature of the assay: Binding affinity to human EGFR S752-I759 deletion mutant expressed in bacterial system assessed as control score at 1 uM by KINOMEScan assay.
Assay [11] has as its system Epidermal growth factor receptor (Homo sapiens), P00533 [T790M]. Nature of the assay: Binding affinity to human EGFR T790M mutant expressed in mammalian system assessed as control score at 1 uM by KINOMEScan assay.

For `C=CC(=O)N1CCC[C@@H](n2nc(-c3ccc(OCc4ccccn4)c(Cl)c3)c3c(N)ncnc32)C1`, the Activity in assay [1] was found to be 10%; in [2] it was 0.35%; in assay [3], 1.6%; in [4], 5.5%; in assay [5], 8.5%; in assay [6], 5.5%. Also, the Activity in assay [7] is 0.7%; in assay [8], 1.4%; in assay [9], 0.15%; in assay [10] it was 2.2%; in assay [11] it was 0.15%.

The record behind these values is ChEMBL document CHEMBL4049404, “Discovery of (R)-1-(3-(4-Amino-3-(3-chloro-4-(pyridin-2-ylmethoxy)phenyl)-1H-pyrazolo[3,4-d]pyrimidin-1-yl)piperidin-1-yl)prop-2-en-1-one (CHMFL-EGFR-202) as a Novel Irreversible EGFR Mutant Kinase Inhibitor with a Distinct Binding Mode” (J Med Chem, 2017).
